Experimental data reported in paper PMC6225275 (Molecules : A Journal of Synthetic Chemistry and Natural …, 2018).

The chains behind the UniProt entries cited, without tags or fusion partners. Residues count along the entry.
UniProt P22303, 32-614 limits assumed: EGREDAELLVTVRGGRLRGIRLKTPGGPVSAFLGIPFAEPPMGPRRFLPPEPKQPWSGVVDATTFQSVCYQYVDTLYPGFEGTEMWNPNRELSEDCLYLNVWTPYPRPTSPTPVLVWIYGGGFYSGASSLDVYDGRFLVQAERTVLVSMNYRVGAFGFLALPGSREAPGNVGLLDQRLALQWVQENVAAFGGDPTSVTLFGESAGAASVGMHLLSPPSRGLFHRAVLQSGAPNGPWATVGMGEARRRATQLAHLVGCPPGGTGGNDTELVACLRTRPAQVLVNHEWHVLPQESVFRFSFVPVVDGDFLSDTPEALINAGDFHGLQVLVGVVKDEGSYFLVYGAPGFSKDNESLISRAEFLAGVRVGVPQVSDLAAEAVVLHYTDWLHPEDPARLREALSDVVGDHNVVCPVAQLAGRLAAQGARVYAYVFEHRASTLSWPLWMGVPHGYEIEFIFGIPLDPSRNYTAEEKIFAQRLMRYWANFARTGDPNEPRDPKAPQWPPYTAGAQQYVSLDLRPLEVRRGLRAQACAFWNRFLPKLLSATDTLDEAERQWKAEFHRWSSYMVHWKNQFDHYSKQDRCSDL

Molecular target: tabun (GA)-inhibited human recombinant AChE (HssAChE) (Homo sapiens, UniProt P22303)
Test: Reactivation of tabun (GA)-inhibited HssAChE, Ellman protocol
Conditions: 15 min incubation, pH 7.4, triplicate

Compound	GA-HssAChE Reactivation (% ± SD) (reactivator 10 μM)	GA-HssAChE Reactivation (% ± SD) (reactivator 100 μM)
OCc1cc[n+](CCCC[n+]2ccc(C=NO)cc2)cc1.[Br-].[Br-] [Compound 18, 4-Hydroxyiminomethyl-4′-hydroxymethyl-1,1′-(but-1,4-diyl)-bispyridinium dibromide]	4.0 ± 0.3%	2.6 ± 0.3%
ON=Cc1cc[n+](CCCC[n+]2ccccc2)cc1.[Br-].[Br-] [Compound 10, 4-Hydroxyiminomethyl-1,1′-(but-1,4-diyl)-bispyridinium dibromide]	4.5 ± 0.3%	3.9 ± 0.1%
Cc1cc[n+](CCCC[n+]2ccc(C=NO)cc2)cc1.[Br-].[Br-] [Compound 14, 4-Hydroxyiminomethyl-4′-methyl-1,1′-(but-1,4-diyl)-bispyridinium dibromide]	6.3 ± 0.3%	3.4 ± 0.4%
O=C(O)c1cc[n+](CCCC[n+]2ccc(C=NO)cc2)cc1.[Br-].[Br-] [Compound 20, 4-Carboxy-4′-hydroxyiminomethyl-1,1′-(but-1,4-diyl)-bispyridinium dibromide]	6.2 ± 0.3%	3.3 ± 0.5%
